Measurements as given in patent US6126917A, “Epidermal growth factor receptor binding compounds for positron emission tomography” (Hadasit Medical Research Services and Development Ltd., priority 1999, dated 2000).
Where two headings read alike, the source gives them in different places.

By UniProt entry, the sequences of proteins in these tests, tags left out. Residues count along the entry.
UniProt P00533, 25-1210: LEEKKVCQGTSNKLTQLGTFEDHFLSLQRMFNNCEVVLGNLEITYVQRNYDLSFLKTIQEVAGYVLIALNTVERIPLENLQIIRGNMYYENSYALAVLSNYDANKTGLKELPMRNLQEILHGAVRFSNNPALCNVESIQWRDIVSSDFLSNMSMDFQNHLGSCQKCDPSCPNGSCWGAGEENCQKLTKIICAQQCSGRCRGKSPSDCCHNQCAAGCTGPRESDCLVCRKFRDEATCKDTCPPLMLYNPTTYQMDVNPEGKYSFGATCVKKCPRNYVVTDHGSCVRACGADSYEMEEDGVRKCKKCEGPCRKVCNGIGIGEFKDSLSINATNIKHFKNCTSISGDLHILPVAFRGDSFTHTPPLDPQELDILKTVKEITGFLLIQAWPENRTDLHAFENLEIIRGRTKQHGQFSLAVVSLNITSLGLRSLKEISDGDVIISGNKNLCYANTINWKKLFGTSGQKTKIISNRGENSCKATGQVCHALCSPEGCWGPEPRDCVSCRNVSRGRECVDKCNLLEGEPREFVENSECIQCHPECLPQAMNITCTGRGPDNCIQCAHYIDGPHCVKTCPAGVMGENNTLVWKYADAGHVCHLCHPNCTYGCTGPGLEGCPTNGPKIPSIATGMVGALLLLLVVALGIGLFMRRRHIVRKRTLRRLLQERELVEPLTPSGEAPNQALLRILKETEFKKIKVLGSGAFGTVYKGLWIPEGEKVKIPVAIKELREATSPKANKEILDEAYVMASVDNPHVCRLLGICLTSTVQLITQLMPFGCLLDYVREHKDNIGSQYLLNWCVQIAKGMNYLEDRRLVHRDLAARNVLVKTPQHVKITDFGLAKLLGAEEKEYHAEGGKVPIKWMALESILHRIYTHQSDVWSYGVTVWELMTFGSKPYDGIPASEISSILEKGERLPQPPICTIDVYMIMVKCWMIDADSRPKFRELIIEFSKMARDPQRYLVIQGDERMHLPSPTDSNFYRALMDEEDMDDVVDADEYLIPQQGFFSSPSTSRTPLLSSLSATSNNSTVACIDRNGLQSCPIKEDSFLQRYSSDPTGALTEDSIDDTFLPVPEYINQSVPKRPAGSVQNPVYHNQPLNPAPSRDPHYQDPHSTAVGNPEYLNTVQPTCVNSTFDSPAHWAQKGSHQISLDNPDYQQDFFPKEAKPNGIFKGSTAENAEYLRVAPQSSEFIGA

Target: T1, EGFR-TK (Homo sapiens, UniProt P00533)
T1 construct: As a source of EGFR-TK, A431 human epidermoid carcinoma cell lysate was used; endogenous in cells; host or cells: A431 human epidermoid carcinoma cells (Triton X-100 lysate, EGFR captured by monoclonal antibody m108)
Assay: EGFR-TK autophosphorylation inhibition (ELISA assay)
Assay type: biochemical
Procedure: Autophosphorylation Inhibition Experiments:
EGFR-TK source: As a source of EGFR-TK, A431 human epidermoid carcinoma cell lysate was used. A431 cells were grown in DMEM containing 10% fetal calf serum and antibiotics penicillin and streptomycin). After several days, the cells were removed from the flasks by incubation at 37° C. with PBS/i mM EDTA buffer for 1 hour. […] Cell lysate was obtained with a further centrifugation (10,000 rpm×10 minutes at 4° C.), and the supernatant was collected and frozen at -70° C. in aliquots.
ELISA assay: EGFR-TK autophosphorylation IC50 values were obtained by means an ELISA assay. All the following incubations were performed at room temperature and with constant shaking. After each step the plate was washed with water (5×) and TBST buffer (1×). The final volume for each well was 150 μl. A Coming 96 well ELISA plate was coated with monoclonal anti EGFR antibody m108 (Sugen Inc.) diluted in PBS (pH 8.2), and kept overnight at 4° C.
After removing the unbound m108, the plate was washed and PBS containing 5% milk (1% fat) was added for the blocking (25 minutes). One aliquot of A431 cell lysate was thawed and added to the plate.
After 25 minutes, seven different concentrations of each inhibitor were added, and for each case one well was left as a control. All inhibitors were diluted in TBS/DMSO and the final concentration of DMSO was 0.05% in each well (including the controls).
After 25 minutes, and without washing the plate, ATP/MnCl2 solution was added in each well. The final concentration was 3 μM ATP/5 mM MnCl2. In this step the temperature was kept at 26° C. and the plate was under constant shaking. The incubation with ATP/MnCl2 was for 5 minutes.
Then, to stop the phosphorylation reaction, EDTA was added (pH 8, final concentration in each well 20 mM) and after 1 minute all the plate was washed.
Afterward, polyclonal anti-phosphotyrosine serum (Sugen, Inc.) was added (dilution of antibody in TBST containing 5% milk). The incubation was for 45 minutes.
For the calorimetric detection of phosphotyrosine in EGFR-TK, TAGO anti-rabbit peroxidase conjugate antibody (Sugen, Inc.) was added in TBST/5% milk solution (45 minutes).
After washing, the colorimetric reaction was performed by adding ABTS/H2 O2 in citrate-phosphate buffer.
The analysis of the data was performed with "Regression" software.
Since the exact concentrations of m108 in the stock solution and EGFR-TK in the cell lysate were unknown, an experiment was performed to determine the optimal dilution of m108 stock and lysate. Stock m108 (approx. 0.2-0.5 μg/μl) was diluted 1:400, 1:600, 1:800 and 1:1000 with PBS, while A431 cell lysate was diluted 1:2, 1:4, 1:6, 1:8, and 1:10.

SMILES	IC50	IC50 (average ± SEM, A431 cell lysate, 3 μM ATP/5 mM MnCl2, Table 1, read-out: Autophosphorylation IC50)	IC50 (read-out: IC50 toward epidermal growth factor receptor tyrosine kinase activity (autophosphorylation))	IC50 compared with the values for AG 1478 and PD 153035 (relative to AG 1478 and PD 153035)
COc1cc2ncnc(Nc3cccc(Cl)c3)c2cc1OC [AG 1478, reference compound]	0.79 ± 0.26 nM	–	–	–
COc1cc2ncnc(Nc3cccc(F)c3)c2cc1OC [Compound 2, 4-[(3-Fluorophenyl)amino]-6,7-dimethoxyquinazoline]	–	19.8 ± 8.2 nM	19.8 nM	higher by two orders of magnitude
